We go through six substances from patent publication US20180193330A1, “ALKYLATED TETRAHYDROISOQUINOLINES FOR BINDING TO CENTRAL NERVOUS SYSTEM RECEPTORS” (Florida A&M University, priority 2017, published 2018).

Chains of the proteins cited; added tags and fusions are not shown. Residues count along the entry.
UniProt P34969, whole entry: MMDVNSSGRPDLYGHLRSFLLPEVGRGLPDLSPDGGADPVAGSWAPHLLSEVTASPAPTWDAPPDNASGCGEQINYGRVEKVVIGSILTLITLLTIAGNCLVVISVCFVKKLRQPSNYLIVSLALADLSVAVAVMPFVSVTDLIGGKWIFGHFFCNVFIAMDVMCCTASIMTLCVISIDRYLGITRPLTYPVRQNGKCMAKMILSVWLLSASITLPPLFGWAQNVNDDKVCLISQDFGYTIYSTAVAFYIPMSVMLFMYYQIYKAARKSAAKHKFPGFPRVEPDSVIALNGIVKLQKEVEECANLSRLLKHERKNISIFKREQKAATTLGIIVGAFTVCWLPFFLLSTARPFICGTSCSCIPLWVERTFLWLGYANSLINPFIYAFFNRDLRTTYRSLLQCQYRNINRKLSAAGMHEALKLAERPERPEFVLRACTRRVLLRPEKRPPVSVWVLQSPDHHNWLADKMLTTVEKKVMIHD
UniProt P35462, whole entry: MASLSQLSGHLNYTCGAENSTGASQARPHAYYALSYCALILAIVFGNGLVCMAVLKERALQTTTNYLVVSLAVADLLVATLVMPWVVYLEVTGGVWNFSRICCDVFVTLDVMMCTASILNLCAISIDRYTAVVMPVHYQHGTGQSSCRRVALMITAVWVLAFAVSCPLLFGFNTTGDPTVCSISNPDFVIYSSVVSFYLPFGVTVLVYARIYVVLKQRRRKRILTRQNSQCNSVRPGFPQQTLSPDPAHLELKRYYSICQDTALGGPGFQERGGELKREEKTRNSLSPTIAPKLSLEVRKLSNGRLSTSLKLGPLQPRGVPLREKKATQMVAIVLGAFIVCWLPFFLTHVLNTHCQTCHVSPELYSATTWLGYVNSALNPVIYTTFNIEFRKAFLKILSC
UniProt P28223, whole entry: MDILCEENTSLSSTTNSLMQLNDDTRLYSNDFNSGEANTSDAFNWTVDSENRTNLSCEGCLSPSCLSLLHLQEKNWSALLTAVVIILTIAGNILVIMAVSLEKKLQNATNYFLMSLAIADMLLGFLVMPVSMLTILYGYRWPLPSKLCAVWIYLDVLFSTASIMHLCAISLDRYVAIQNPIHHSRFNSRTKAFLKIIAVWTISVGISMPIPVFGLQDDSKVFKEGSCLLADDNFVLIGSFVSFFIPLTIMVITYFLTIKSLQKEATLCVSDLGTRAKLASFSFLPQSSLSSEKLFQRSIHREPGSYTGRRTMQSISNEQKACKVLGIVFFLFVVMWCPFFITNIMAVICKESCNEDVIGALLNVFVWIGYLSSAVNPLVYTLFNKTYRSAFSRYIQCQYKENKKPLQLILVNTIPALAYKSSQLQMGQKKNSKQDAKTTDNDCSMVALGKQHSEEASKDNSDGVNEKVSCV
UniProt P08908, whole entry: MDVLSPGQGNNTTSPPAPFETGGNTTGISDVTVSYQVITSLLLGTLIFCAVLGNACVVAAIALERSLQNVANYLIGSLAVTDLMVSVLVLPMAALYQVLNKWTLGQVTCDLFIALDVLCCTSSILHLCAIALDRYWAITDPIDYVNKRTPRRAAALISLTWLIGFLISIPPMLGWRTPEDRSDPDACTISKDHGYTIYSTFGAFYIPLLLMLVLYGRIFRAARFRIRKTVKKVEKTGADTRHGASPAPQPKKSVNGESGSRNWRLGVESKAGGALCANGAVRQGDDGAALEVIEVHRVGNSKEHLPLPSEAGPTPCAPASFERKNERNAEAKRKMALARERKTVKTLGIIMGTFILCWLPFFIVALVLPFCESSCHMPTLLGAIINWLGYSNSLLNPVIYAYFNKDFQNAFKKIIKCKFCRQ
UniProt P31645, whole entry, species assumed: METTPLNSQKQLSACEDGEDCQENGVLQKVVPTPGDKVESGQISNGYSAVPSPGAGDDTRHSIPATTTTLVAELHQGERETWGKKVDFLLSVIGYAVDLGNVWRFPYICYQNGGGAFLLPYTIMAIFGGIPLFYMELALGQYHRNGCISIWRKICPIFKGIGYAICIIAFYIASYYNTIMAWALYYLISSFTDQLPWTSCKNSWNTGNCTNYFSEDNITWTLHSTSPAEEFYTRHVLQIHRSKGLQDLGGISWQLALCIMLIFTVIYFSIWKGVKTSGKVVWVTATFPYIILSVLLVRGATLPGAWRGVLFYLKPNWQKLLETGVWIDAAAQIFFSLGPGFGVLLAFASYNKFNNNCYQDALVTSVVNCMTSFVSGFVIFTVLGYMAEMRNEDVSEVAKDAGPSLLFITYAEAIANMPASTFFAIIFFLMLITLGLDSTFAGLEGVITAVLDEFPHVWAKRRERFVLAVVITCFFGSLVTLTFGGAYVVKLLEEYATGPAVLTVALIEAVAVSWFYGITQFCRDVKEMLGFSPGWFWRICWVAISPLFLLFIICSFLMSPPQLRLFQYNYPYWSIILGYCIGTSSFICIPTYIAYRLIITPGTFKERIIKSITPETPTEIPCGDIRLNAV
UniProt P28335, 33-458: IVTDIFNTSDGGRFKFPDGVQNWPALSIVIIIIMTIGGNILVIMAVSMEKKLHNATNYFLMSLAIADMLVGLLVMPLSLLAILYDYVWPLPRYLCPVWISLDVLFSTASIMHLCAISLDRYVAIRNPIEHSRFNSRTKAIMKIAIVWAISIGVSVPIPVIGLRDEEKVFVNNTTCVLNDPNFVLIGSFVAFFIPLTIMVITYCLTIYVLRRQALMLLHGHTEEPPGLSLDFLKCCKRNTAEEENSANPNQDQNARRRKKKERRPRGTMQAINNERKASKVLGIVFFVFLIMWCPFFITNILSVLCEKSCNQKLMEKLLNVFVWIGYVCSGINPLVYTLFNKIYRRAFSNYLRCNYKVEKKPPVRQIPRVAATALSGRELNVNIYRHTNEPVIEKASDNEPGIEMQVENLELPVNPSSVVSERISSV
UniProt P14416, whole entry: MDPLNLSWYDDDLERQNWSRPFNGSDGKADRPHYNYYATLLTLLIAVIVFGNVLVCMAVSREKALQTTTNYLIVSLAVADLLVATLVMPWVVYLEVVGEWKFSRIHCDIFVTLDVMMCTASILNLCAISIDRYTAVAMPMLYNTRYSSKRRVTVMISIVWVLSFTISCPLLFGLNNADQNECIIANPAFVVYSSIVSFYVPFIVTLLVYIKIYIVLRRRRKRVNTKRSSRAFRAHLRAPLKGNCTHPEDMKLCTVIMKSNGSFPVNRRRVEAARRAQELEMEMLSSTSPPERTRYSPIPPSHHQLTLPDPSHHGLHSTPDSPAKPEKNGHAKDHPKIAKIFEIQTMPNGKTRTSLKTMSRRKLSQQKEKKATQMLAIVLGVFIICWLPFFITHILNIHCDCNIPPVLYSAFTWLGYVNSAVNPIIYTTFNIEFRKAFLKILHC

Experiment [1] deals with 5-HT7 receptor (Homo sapiens, UniProt P34969). The experiment can be described thus: Receptor binding affinity at 5-HT7 (NIMH-PDSP radioligand binding).
In experiment [2] the target is D3 receptor (Homo sapiens, UniProt P35462). The experiment can be described thus: Receptor binding affinity at dopamine D3 (NIMH-PDSP radioligand binding). The settings on record: for Ki: read-out: Ki D3.
The target of experiment [3] is 5-HT2A receptor (Homo sapiens, UniProt P28223). The experiment can be described thus: Receptor binding affinity at 5-HT2A (NIMH-PDSP radioligand binding).
Experiment [4] concerns the target 5-HT1A receptor (Homo sapiens, UniProt P08908). The experiment can be described thus: Receptor binding affinity at 5-HT1A (NIMH-PDSP radioligand binding). The settings on record: Table 6, FIG. 23 compounds; for Ki: read-out: Ki 5-HT1A.
In experiment [5] the target is SERT (Homo sapiens, UniProt P31645). In words: Binding affinity at SERT.
Experiment [6] concerns the target 5-HT2C receptor (Homo sapiens, UniProt P28335). In words: Receptor binding affinity at 5-HT2C (NIMH-PDSP radioligand binding). The settings on record: Table 6, FIG. 23 compounds.
The target in experiment [7] is D2 receptor (Homo sapiens, UniProt P14416). The experiment can be described thus: Receptor binding affinity at dopamine D2 (NIMH-PDSP radioligand binding).

By Ki is commonly meant a measure of affinity in units of concentration, obtained from inhibition or displacement. “2-(4-(3,4-Dihydroisoquinolin-2(1H)-yl)butyl)isoindoline-1,3-dione [Compound 1]”: the “pKi ± SEM 5-HT7” value in experiment [1] was “(8.8 ± 0.06)”. Besides, in experiment [2], the inhibition constant (Ki) was 866 nM.

On to “2-(3-(4-Fluorophenoxy)propyl)-1,2,3,4-tetrahydroisoquinoline hydrochloride [Compound 7]”, for which the inhibition constant Ki in experiment [3] was 525 nM; in experiment [2], 822 nM; in experiment [4] it was 146 nM. Moreover, in experiment [3], the “pKi ± SEM 5-HT2A” value was “(6.28 ± 0.04)”.

As for “2-(4-(Octahydroisoquinolin-2(1H)-yl)butyl)isoindoline-1,3-dione [Compound 2]”, in experiment [3], the Ki was 748 nM and the “pKi ± SEM 5-HT2A” value is “(6.1 ± 0.1)”. Further, in experiment [5], the Ki was over 10000 nM and the “pKi ± SEM SERT” value is “(>5.0)”. Besides, in experiment [4], the “pKi ± SEM 5-HT1A” value is “(7.73 ± 0.04)” and the inhibition constant (Ki) was found to be 19 nM.

In the case of “2-(4-(1H-Indol-3-yl)butyl)-1,2,3,4-tetrahydroisoquinoline [Compound 4]”, in experiment [3], the affinity, expressed as Ki, was 1010 nM and the “pKi ± SEM 5-HT2A” value was “(5.99 ± 0.09)”. Besides, the “pKi ± SEM 5-HT7” value in experiment [1] was “(8.4 ± 0.07)”. In addition, in experiment [1] (read-out: Ki 5-HT7), the inhibition constant (Ki) was 4 nM. For the same substance, in experiment [4], the “pKi ± SEM 5-HT1A” value was “(7.48 ± 0.04)” and the inhibition constant Ki came out at 33 nM.

For “2-(4-(4-Fluorophenyl)butyl)-1,2,3,4-tetrahydroisoquinoline hydrochloride [Compound 6]”, the figures for the Ki in experiment [3], in experiment [2] and in experiment [6] were 962 nM, 78 nM and 618 nM, respectively. The “pKi ± SEM D3” value in experiment [2] is “(7.1 ± 0.1)”. The “pKi ± SEM 5-HT2C” value in experiment [6] is “(6.21 ± 0.06)”.

In the case of “2-(2-(5-Fluoro-2,3-dihydro-1H-inden-2-yl)ethyl)-1,2,3,4-tetrahydroisoquinoline hydrochloride [Compound 5]”, in experiment [3], the Ki is 1330 nM and the “pKi ± SEM 5-HT2A” value was “(5.88 ± 0.04)”. Also, in experiment [4], the “pKi ± SEM 5-HT1A” value is “(7.18 ± 0.04)” and the Ki came out at 66 nM. For the same substance, in experiment [7], the affinity corresponds to a Ki of 885 nM and the “pKi ± SEM D2” value is reported as “(6.05 ± 0.05)”.
